## Yeast mating assay 1: variants of the scFv Ab-14

From the AlphaSeq antibody data of Engelhart et al. 2022 (doi:10.1038/s41597-022-01779-4), copy in the FLAb collection.

All variants were tested on one target, the spike HR2 peptide PDVDLGDISGINAS (SARS-CoV-2).

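Phage display of a naive human antibody library on the peptide gave the parent. Variants in AAYL50 differ from the parent at up to three CDR positions; double and triple changes were sampled at random. In AlphaSeq, yeast of one mating type display the scFv and yeast of the other type display the target. Binding brings cells together so that they mate, and sequencing counts the barcode pairs among the diploids. Each replicate has its own calibration line, from reference interactions of the BCL2 family. Mating was done three times.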

Parent: Ab-14, a human scFv built as VH, a 15-residue (Gly4Ser)3 linker, VL. Only the CDRs of the light chain vary.
VH: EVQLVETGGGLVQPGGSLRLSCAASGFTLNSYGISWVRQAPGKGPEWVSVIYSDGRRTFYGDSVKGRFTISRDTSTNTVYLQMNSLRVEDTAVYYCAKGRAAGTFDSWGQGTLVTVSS
VL: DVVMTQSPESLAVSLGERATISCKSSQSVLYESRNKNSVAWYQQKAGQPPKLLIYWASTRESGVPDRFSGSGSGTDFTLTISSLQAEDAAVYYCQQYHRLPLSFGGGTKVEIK

Positions count from residue 1 of the parent VL; S28T puts T in place of S. Values are log10 of the apparent Kd in nM; lower means stronger binding. "nd" marks a missing value. The strain was present, yet no cells mated with the target were sequenced in that replicate, which points to weak or no binding. Background: pairings of library AAYL50 with three empty control strains gave a value in 18% of cases (median 4.19, 5th percentile 2.99). Values in that range, when seen in few replicates, are hard to tell from nonspecific mating. The control count says in how many pairings with the empty strains this scFv gave a signal, with their mean in brackets.

changes	replicates, log10 nM	control signals
S28T+K36A+Q95K	nd nd nd	0/9
S38E+L100K+L102N	4.09 3.58 3.79	3/9 (4.77)
A40Q+L100A+S103Q	nd 4.32 5.31	3/9 (4.64)
N35G+R60Q+L100I	nd 4.79 5.46	6/9 (4.61)
V29Y+A57C+Y97P	nd nd nd	1/9 (3.76)
S33A+W56V+L102M	nd 3.77 nd	0/9
S28Q+Q96L	1.08 0.88 0.80	1/9 (5.40)
V29F+L30G+A40C	4.15 3.29 2.93	2/9 (3.20)
K36T+A40I+W56V	nd nd 4.64	1/9 (3.28)
K24D+K36G+A57N	4.25 3.29 nd	3/9 (4.00)
K24F+S58F+R99G	nd nd nd	0/9
S28A+Y31H+N37I	3.43 2.18 2.05	0/9
S25T+S62P+L102K	nd 2.76 nd	0/9
Q95W+Q96M+L100C	nd nd nd	0/9
S62P+Y97C	0.83 0.55 0.47	0/9
L30S+L100D	1.19 1.17 1.18	4/9 (4.52)
S33N+S38C+V39N	nd 4.15 nd	5/9 (4.67)
A57Q+R60H+Y97I	4.17 nd 4.65	1/9 (4.90)
K36H+V39D+L100I	nd 3.55 nd	0/9
K36H+S58I+H98P	nd nd nd	1/9 (4.16)
S25I+S33Y+A57R	1.28 1.39 1.34	2/9 (4.61)
S25T+S103K	2.16 2.72 1.91	1/9 (4.01)
K24M+V29A+A57K	3.26 2.69 2.64	2/9 (4.04)
S28G+Q95I+P101N	3.19 3.67 nd	2/9 (3.65)
S26C+Y97M+L102N	3.99 3.58 5.45	2/9 (4.39)
L30Q+E61P+L102Q	5.23 nd 4.80	4/9 (5.16)
V39P+T59G+Q95T	nd nd nd	0/9
N35M+S62P	1.01 1.08 1.16	6/9 (4.56)
S25F+K36Q+L100H	1.74 1.68 2.93	0/9
V29F+K36Q+A57V	0.77 1.07 1.04	1/9 (3.81)
E61A+Q95H	nd nd nd	0/9

From the list, the first 5 with no signal in any replicate:

changes	replicates, log10 nM	control signals
S28T+K36A+Q95K	nd nd nd	0/9
V29Y+A57C+Y97P	nd nd nd	1/9 (3.76)
K24F+S58F+R99G	nd nd nd	0/9
Q95W+Q96M+L100C	nd nd nd	0/9
K36H+S58I+H98P	nd nd nd	1/9 (4.16)